Values joined by “and” are separate entries in the source; they are usually repeats but may differ in a detail not shown here. Identical values can stand only once.
Target: T1, Drosophila OR71a (Drosophila melanogaster, UniProt Q9VUK5)
T1 construct: expressed in transfected cells
T1 sequence (Q9VUK5 1-378): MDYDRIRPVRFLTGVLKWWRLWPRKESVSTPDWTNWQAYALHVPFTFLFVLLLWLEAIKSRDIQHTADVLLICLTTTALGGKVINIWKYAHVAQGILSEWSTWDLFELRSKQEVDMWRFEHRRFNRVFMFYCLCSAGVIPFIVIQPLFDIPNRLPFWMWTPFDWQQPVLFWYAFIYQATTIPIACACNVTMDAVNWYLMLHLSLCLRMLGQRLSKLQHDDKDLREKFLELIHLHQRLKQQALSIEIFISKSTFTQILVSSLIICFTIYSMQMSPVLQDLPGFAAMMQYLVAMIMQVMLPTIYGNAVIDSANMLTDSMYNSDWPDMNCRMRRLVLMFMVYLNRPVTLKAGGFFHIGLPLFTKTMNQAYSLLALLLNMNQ
T1 sequence (Q9VNB5 1-486 partner): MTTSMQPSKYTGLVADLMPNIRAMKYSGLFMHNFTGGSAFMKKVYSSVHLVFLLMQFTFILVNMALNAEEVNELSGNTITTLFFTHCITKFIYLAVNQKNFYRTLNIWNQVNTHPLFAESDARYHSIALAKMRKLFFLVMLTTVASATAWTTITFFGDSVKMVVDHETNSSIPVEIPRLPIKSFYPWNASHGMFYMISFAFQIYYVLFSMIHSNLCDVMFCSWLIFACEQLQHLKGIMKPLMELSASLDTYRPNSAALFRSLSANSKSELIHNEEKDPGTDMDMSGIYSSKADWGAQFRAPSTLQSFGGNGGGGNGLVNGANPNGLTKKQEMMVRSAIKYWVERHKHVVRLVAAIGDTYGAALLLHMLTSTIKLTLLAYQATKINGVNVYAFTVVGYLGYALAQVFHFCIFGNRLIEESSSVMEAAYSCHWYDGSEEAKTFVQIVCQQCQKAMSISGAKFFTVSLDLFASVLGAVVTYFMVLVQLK
Experiment: Calcium ion fluorescence (GCaMP6) assay, OR71a stable HEK293 cell line
Format: cell-based
Conditions: for OR71a Average response (VUAA1-normalized): 50 μM VUAA1 = 1; for Average response: OR71a cell line, VUAA1-normalized response, mean of biological replicates; for DF norm AVERAGE OR71a: normalized fluorescence change, values below 0.05 threshold given as 0
Experimental: These VUAA1 normalized ∆F values were used to compare the different receptors and ligands.
The concentration-dependent effect of the reference ligands on their cognate cell lines was examined in more detail. Twelve different ligand concentrations were measured on each cell line in an overall 0.01 μM to 100 μM concentration range with 5 repetitions with three technical replicates each time.
Twelve thousand to 18,000 cells were plated into each well of a black wall, transparent bottom 384-well microplate (Greiner) 48 h or 72 h before the measurements and were simultaneously treated with 1 μg/mL doxycycline. […] The plate has 24 columns, thus we could record responses in up to eight different cell lines in each plate. On the day of the experiment, the growth medium was replaced with 20 µL assay buffer/well (140 mM NaCl, 5 mM KCl, 2 mM CaCl2, 1 mM MgCl2, 5 mM HEPES-Na, 20 mM glucose, pH 7.3, 340 mOsm). […] Baseline fluorescence (F0) was recorded for 5 s, after which 7 µL VOC buffer (140 mM NaCl, 5 mM KCl, 2 mM CaCl2, 1 mM MgCl2, 5 mM HEPES-Na, 31 mM glucose, 0.1% DMSO, pH 7.3, 340 mOsm) was injected into each well in one row and the fluorescence response was recorded for an additional 30 s, at a rate of one read/sec. VOC solutions (VOC buffer with 4× concentration of the final measured VOC concentration, 9 µL/well was injected) were measured on the same wells in a second round with the same protocol. Each individual concentration of a specific VOC sample was recorded in three wells for the same cell line on the same microplate. The raw data were exported in xls file format, F0 and FMAX values, and the fluorescence intensity changes (∆F) were calculated in Excel (Microsoft) (Supplementary file Data summary.xlsx) using the following equation: ΔF=FMAX-F0/F0 (see also Fig. 1C). On each plate, we recorded the response of each cell line to 50 µM VUAA1. The average of these ∆F values of each cell line were used to calculate the VUAA1-normalized values for the rest of the plate, by dividing VOC response ∆F values by the average VUAA1 response ∆F value of the corresponding OR cell line. Each VOC-OR combination was measured three times as technical replicates. […] The average of these replicates were used as one ∆F and VUAA1-normalized ∆F in the following analysis.
In the next rows we tested the reference VOCs (or other VOCs known to activate the corresponding cell lines), in order to test if all cell lines are responsive. The remaining rows were used to test VOCs with unknown effect.
The recorded FMAX, F0, ∆F, VUAA1-normalized ∆F values, as well as the OR name, the name of the tested sample, and the final concentration for each well were copied into supplementary file Data summary.xlsx, that was used to summarize all the plates recorded. Here, the averages of the measurements were calculated for each receptor-VOC-concentration combination.

[1] = HEK293, read-out: OR71a response (VUAA1-normalized response)
[2] = OR71a, average of 5 biological replicates
[3] = OR71a, fit of each biological replicate
[4] = OR71a, fit of the averaged curve

SMILES: CC(=O)CCC=C(C)C [6-methyl-5-hepten-2-one]
- OR71a Average response (VUAA1-normalized) (1 μM VOC): 0.03
- OR71a Average response (VUAA1-normalized) (10 μM VOC): 0.18
- OR71a Average response (VUAA1-normalized) (100 μM VOC): 0.19
- EC50 (AVERAGE EC50, OR71a, printed with 95% confidence interval, matches the average LOG EC50): 1.62 µM
- EC50 (EC50 (fitted parameter), OR71a, fit of each biological replicate): 3.42 µM and 1.63 µM and 1.41 µM and 2.57 µM and 0.543 µM
- EC50 (EC50, AVERAGE, OR71a, arithmetic average of 5 replicate EC50): 1.92 µM
- EC50 (EC50, FITTED AVERAGE CURVE, OR71a, fit of the averaged curve): 1.54 µM
- EC50 (EC50, OR71a cell line, fitted Hill equation, Hill coefficient constrained to 1, maximal response max 1): 1.62 µM
- activation at 1 µM [1]: 0%
- activation at 10 µM [1]: 18%
- activation at 100 µM [1]: 19%
- Emax (HEK293, read-out: VUAA1 normalized MAX response): 20%
- EC50 (LOG EC50, AVERAGE, OR71a, average of 5 biological replicates): 1.62 µM
- Average response (cc. 1 µM): 0.0267
- Average response (cc. 10 µM): 0.18
- Average response (cc. 100 µM): 0.19
- response, AVERAGE (OR71a, VOC concentration 0.15): 0
- response, biological replicates (OR71a, VOC concentration 0.15): 0
- response, AVERAGE (OR71a, VOC concentration 0.3): 0.02478
- response, biological replicates (OR71a, VOC concentration 0.3): 0.09911 and 0 (3×)
- response, AVERAGE (OR71a, VOC concentration 0.6): 0.02954
- response, biological replicates (OR71a, VOC concentration 0.6): 0 (3×) and 0.08838 and 0.05933
- response, AVERAGE (OR71a, VOC concentration 1.25): 0.07965
- response, biological replicates (OR71a, VOC concentration 1.25): 0.1099 and 0 and 0.129
- response, AVERAGE (OR71a, VOC concentration 2.5): 0.1242
- response, biological replicates (OR71a, VOC concentration 2.5): 0.1201 and 0.133 and 0.08738 and 0.142 and 0.1387
- response, AVERAGE (OR71a, VOC concentration 5): 0.1684
- response, biological replicates (OR71a, VOC concentration 5): 0.1067 and 0.1704 and 0.1827 and 0.2138
- response, AVERAGE (OR71a, VOC concentration 10): 0.2413
- response, biological replicates (OR71a, VOC concentration 10): 0.194 and 0.2008 and 0.2784 and 0.2921
- response, AVERAGE (OR71a, VOC concentration 20): 0.1802
- response, biological replicates (OR71a, VOC concentration 20): 0.2754 and 0.1495 and 0.1134 and 0.2326 and 0.13
- response, AVERAGE (OR71a, VOC concentration 40): 0.187
- response, biological replicates (OR71a, VOC concentration 40): 0.1021 and 0.2434 and 0.1602 and 0.3055 and 0.1239
- response, AVERAGE (OR71a, VOC concentration 60): 0.1715
- response, biological replicates (OR71a, VOC concentration 60): 0.2768 and 0.1012 and 0.2214 and 0.08644
- response, AVERAGE (OR71a, VOC concentration 80): 0.1832
- response, biological replicates (OR71a, VOC concentration 80): 0.2635 and 0.1848 and 0.1112 and 0.2643 and 0.09198
- response, AVERAGE (OR71a, VOC concentration 100): 0.1563
- response, biological replicates (OR71a, VOC concentration 100): 0.1989 and 0.09653 and 0.1984 and 0.1315
- AVERAGE MAX [2]: 0.2003
- n, AVERAGE [2]: 1
- MAX (fitted parameter) [3]: 0.2331 and 0.2213 and 0.1441 and 0.2684 and 0.1348
- n (fitted parameter) [3]: 1
- MAX, FITTED AVERAGE CURVE [4]: 0.1989
- n, FITTED AVERAGE CURVE [4]: 0.855
- DF norm AVERAGE OR71a (concentration 1): 0
- DF norm AVERAGE OR71a (concentration 10): 0.1839
- DF norm AVERAGE OR71a (concentration 100): 0.1937

Source: publication PMC10709440, “High-throughput ligand profile characterization in novel cell lines expressing seven heterologous insect olfactory receptors for the detection of volatile plant biomarkers” (Scientific Reports, 2023)
